From US11925672B2, “Peptide having antioxidant activity and composition containing same” (SEMPIO FOODS COMPANY, priority 2018, dated 2024)

Tests used:
SOD2 mRNA = SOD2 mRNA expression level by real-time PCR in Tert-BHP-treated HEK293 cells; type: cell-based; conditions: Tert-BHP 300 μM, peptide 500 μM, 18 hours; for effect on SOD2 mRNA expression: FIG. 6; for SOD2 mRNA expression compared to positive control GSH: vs GSH
Experimental: The expression of SOD2 mRNA as another antioxidant factor was determined. The cell line culture, RNA extraction, cDNA synthesis and PCR experiments were performed in the same manner as in Experimental Example 5 above. A detailed description thereof is given below.
(§1) An HEK293 cell (kidney cell) line was seeded at a density of 6.6×10^5/well in DMEM (Dulbecco's Modified Eagle's Medium) medium on a 6-well plate and cultured at 37° C. and 5% CO2 for 24 hours. The next day, the medium was exchanged with serum and amino-acid-free media, and then the cells were further cultured for 20 hours or longer. The cells were treated with Tert-BHP (300 μM) and 500 μM 100 types of peptides, and then cultured for 18 hours.
RNA was extracted from the cells treated with 100 types of peptides in (1) using TRIzol (Thermo Fisher Scientific). A GoScript™ Reverse Transcription System (Promega, Wisconsin, USA) was used to synthesize cDNA from the RNA. The cDNA was synthesized by performing annealing with 1 μg RNA, 0.5 μg of an oligo dt primer, 0.5 μg of a random primer, and RT-PCR pre-mixture at 25° C. for 5 minutes, extension at 42° C. for 60 minutes, and inactivation at 70° C. for 15 minutes.
(§2) PCR was performed using Maxime™ PCR PreMix (i-StarTaq) (Intron Biotechnology, Korea). Real-time PCR was performed using SsoAdvanced™ Universal SYBR® Green Supermix (Bio-Rad, USA). 100 ng of cDNA, 2 μM (pmol/μl) primers, 10 μl of 2X SsoAdvanced™ Universal SYBR® Green Supermix and DW were added to the PCR plate well. Then, the temperature was cyclically adjusted to 95° C. for 3 minutes, 95° C. for 10 seconds and 58° C. for 40 seconds for a total of 40 cycles. A PCR reaction was performed using the CFX96 Touch™ Real-Time PCR Detection System (Bio-Rad, California, USA), and fluorescence intensity was measured at the end of each cycle.

Nrf2 mRNA = Nrf2 mRNA expression level by real-time PCR in Tert-BHP-treated HEK293 cells; type: cell-based; conditions: Tert-BHP 300 μM, peptide 500 μM, 18 hours; for effect on expression of Nrf2 mRNA: FIGS. 5A to 5C; for Nrf2 mRNA expression compared to positive control GSH: vs GSH
Experimental: In the present invention, the antioxidant activity was compared between the 100 types of peptides, and the change in Nrf2 mRNA expression was measured through PCR in order to select the final peptide.
as §1, with “C. under” for “C. and”
RNA was extracted from the cells treated with 100 types of peptides in (1) using TRIzol (Thermo Fisher Scientific). A GoScript™ Reverse Transcription System (Promega, Wisconsin, USA) was used to synthesize cDNA from the RNA. The cDNA was synthesized by performing annealing using 1 μg of RNA, 0.5 μg of an oligo dt primer, 0.5 μg of a random primer and RT-PCR pre-mixture at 25° C. for 5 minutes, extension at 42° C. for 60 minutes, and inactivation at 70° C. for 15 minutes.
as §2, with “using a” for “using the”

Substance	effect on SOD2 mRNA expression (SOD2 mRNA)	SOD2 mRNA expression compared to positive control GSH (SOD2 mRNA)	effect on expression of Nrf2 mRNA (Nrf2 mRNA)	Nrf2 mRNA expression compared to positive control GSH (Nrf2 mRNA)
γ-GLU-PRO (EP; gamma-glutamyl linkage; The peptide is a formed by condensation of the gamma-carboxy group of L-glutamic acid with the amino group of L-proline.)	increased SOD2 mRNA expression	comparable or superior	improve the expression of Nrf2 mRNA	comparable or superior
γ-GLU-VAL (EV; gamma-glutamyl linkage; The peptide is a formed by condensation of the gamma-carboxy group of L-glutamic acid with the amino group of L-valine.)			improve the expression of Nrf2 mRNA	comparable or superior
γ-GLU-THR (ET; gamma-glutamyl linkage; The peptide is a formed by condensation of the gamma-carboxy group of L-glutamic acid with the amino group of L-threonine.)	increased SOD2 mRNA expression	comparable or superior	improve the expression of Nrf2 mRNA	comparable or superior
γ-GLU-GLY (EG; gamma-glutamyl linkage; The peptide is a formed by condensation of the gamma-carboxy group of L-glutamic acid with the amino group of L-glycine.)	increased SOD2 mRNA expression	comparable or superior; also recorded: statistically significant activity	improve the expression of Nrf2 mRNA	comparable or superior; also recorded: statistically significant activity
γ-GLU-CYS (EC; gamma-glutamyl linkage; The peptide is a formed by condensation of the gamma-carboxy group of L-glutamic acid with the amino group of L-cysteine.)	increased SOD2 mRNA expression	comparable or superior; also recorded: statistically significant activity	improve the expression of Nrf2 mRNA	comparable or superior; also recorded: statistically significant activity
γ-GLU-VAL-NH2 (EV; gamma-glutamyl linkage; C-terminal amide; In the peptide, Val is L-valine amide(Val-NH2). The peptide is a formed by condensation of the gamma-carboxy group of L-glutamic acid with the amino group of L-valine amide.; (2)..(2) valine amide)	increased SOD2 mRNA expression	comparable or superior	improve the expression of Nrf2 mRNA	comparable or superior
γ-GLU-GLU (EE; gamma-glutamyl linkage; The peptide is a formed by condensation of the gamma-carboxy group of L-glutamic acid with the amino group of L-glutamic acid.)			improve the expression of Nrf2 mRNA	comparable or superior
γ-GLU-ARG (ER; gamma-glutamyl linkage; The peptide is a formed by condensation of the gamma-carboxy group of L-glutamic acid with the amino group of L-arginine.)			improve the expression of Nrf2 mRNA	comparable or superior
γ-GLU-PHE (EF; gamma-glutamyl linkage; The peptide is a formed by condensation of the gamma-carboxy group of L-glutamic acid with the amino group of L-phenylalanine.)			improve the expression of Nrf2 mRNA	comparable or superior
7-GLU-MET(O) (EM; gamma-glutamyl linkage; methionine sulfoxide; In the peptide, Met is methionune sulfoxide(Met(O)). The peptide is a formed by condensation of the gamma-carboxy group of L-glutamic acid with the amino group of Met(O).; (2)..(2) methionine sulfoxide) [γ-GLU-MET(O)]	increased SOD2 mRNA expression	comparable or superior	improve the expression of Nrf2 mRNA	
γ-GLU-GLN (EQ; gamma-glutamyl linkage; The peptide is a formed by condensation of the gamma-carboxy group of L-glutamic acid with the amino group of L-glutamine.)	increased SOD2 mRNA expression	comparable or superior; also recorded: statistically significant activity	improve the expression of Nrf2 mRNA	comparable or superior; also recorded: statistically significant activity
γ-GLU-ASP (ED; gamma-glutamyl linkage; The peptide is a formed by condensation of the gamma-carboxy group of L-glutamic acid with the amino group of L-aspartic acid.)			improve the expression of Nrf2 mRNA	comparable or superior
γ-GLU-ASN (EN; gamma-glutamyl linkage; The peptide is a formed by condensation of the gamma-carboxy group of L-glutamic acid with the amino group of L-asparagine.)	increased SOD2 mRNA expression	comparable or superior	improve the expression of Nrf2 mRNA	comparable or superior
γ-GLU-LYS (EK; gamma-glutamyl linkage; peptide identified from yeast hydrolysate)	increased SOD2 mRNA expression	comparable or superior		
γ-GLU-MET (EM; gamma-glutamyl linkage; peptide identified from yeast hydrolysate)	increased SOD2 mRNA expression	comparable or superior		
α-GLU-HIS (EH; alpha-linked; peptide identified from yeast hydrolysate)			no effect	

“Also recorded” adds a separate entry of the source.
